Results published in patent US10465009B2, “BCMA antigen binding proteins” (Amgen Inc., priority 2012, dated 2019).

T1: [6x Histidine-SUMO]-huBCMA (SEQ ID NO:350) and carboxy terminal clipped forms (Homo sapiens, UniProt Q02223)
T1 construct: GGS-G3 linker + Avi tag (lost in the clipped species) (C); made in house
T1 sequence (Q02223 5-54): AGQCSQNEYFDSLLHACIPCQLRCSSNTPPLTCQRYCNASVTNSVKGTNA


What was measured:
[1] = molecular target: T1, [6x Histidine-SUMO]-huBCMA (SEQ ID NO:350) and carboxy terminal clipped forms; test: Size exclusion chromatography and LC/MS of antibody complexes with Sumo-huBCMA and its clipped forms; type: binding; settings: SEC
Excerpt: To determine which forms of 6×His-SUMO-huBCMA were bound to the anti-huBCMA antibodies, the SEC fractions were isolated and analyzed. Carboxy-terminus fragments of the extracellular domain of human BCMA were generated as clipped forms from the rhuBCMA fusion protein (6×His::Sumo::huBCMA(aa 5-51)::GGS::G3::Avi) of SEQ ID NO:350, as shown in FIG. 45.
A Superdex 200™ 10/30 cm SEC column (GE Healthcare Life Sciences) was used according to the manufacturer's recommendations and run in phosphate buffered saline (PBS). Incubations of antibody with excess levels of sumoBCMA were performed at room temperature for at least 30 minutes.
A Superdex 200™ 10/30 cm SEC column (GE Healthcare Life Sciences) was used according to the manufacturer's recommended condision and run in phosphate buffered saline (PBS). Incubations of antibody with excess levels of sumoBCMA were performed at room temperature for at least 30 minutes.
5 ug of total proteins were reduced in 50 mM Tris/4 M guanidine/9 mM DTT, pH 8.0 at 55° C. for 15 min, and analyzed in Agilent LCTOF system using a Vydac C8 column, 2.1 mm ID×150 mm, […] particle size. […] TOF MS conditions included capillary voltage of 4000 V, drying gas flow at 10 L/min, dry gas temperature at 300° C., nebulizer gas flow at 40 L/min, and fragmentor voltage of 300 V. MS data was analyzed in Agilent MassHunter™ Qualitative Analysis program.

KMS11 = test: CellTiter-Glo Luminescent Cell Viability Assay, KMS11; type: cell-based, human
Description: (§1) The ADCs were tested for the ability to target and kill BCMA-expressing myeloma cells. The CellTiter-Glo® Luminescent Cell Viability Assay is a homogeneous method to determine the number of viable cells in culture based on quantitation of the ATP present, which signals the presence of metabolically active cells. The CellTiter-Glo® Assay is applicable to cytotoxicity assays (see http://www.promega.com/products/cell-health-assays/cell-viability-assays/celltiterglo-luminescent-cell-viability-assay/ for more information). The cell viability assay was used to assess the relative killing capacity of various ADCs on various multiple myeloma cell lines and B-cell lines. […] Luminescence was read on an EnVision™ Multilabel reader (PerkinElmer) or Analyst HT plate reader (LJL Biosciences). The data was analyzed and graphed using GraphPad Prism™ to determine the relative efficacy of the ADCs on various cancer cell lines.
(§2) The 2A1CV5-MCC-DM1, 32B5-MCC-DM1 and 29C12-MCC-DM1 ADCs were tested for the ability to target and kill BCMA-expressing myeloma cells (H929). The CellTiter-Glo® Luminescent Cell Viability Assay is a homogeneous method to determine the number of viable cells in culture based on quantitation of the ATP present, which signals the presence of metabolically active cells. […] Luminescence was read on an EnVision™ Multilabel reader (PerkinElmer) or Analyst HT plate reader (LJL Biosciences). […]

MM1S = test: CellTiter-Glo Luminescent Cell Viability Assay, MM1S; type: cell-based, human
Description: as §1, §2

KMS28BM = test: CellTiter-Glo Luminescent Cell Viability Assay, KMS28BM; type: cell-based, human
Description: as §1, §2

Molecule	binding to full-length and truncated forms of huBCMA [1]	Cell line killed by BCMA ADC (KMS11)	Cell line killed by BCMA ADC (MM1S)	Cell line killed by BCMA ADC (KMS28BM)
2A1: parental fully human anti-huBCMA mAb, Vh SEQ ID NO:214, Vl SEQ ID NO:248; heavy chain SEQ ID NO:287, light chain 288 (antibody) heavy: EVQLVESGGGLVKPGRSLRLSCTASGFTFGDYALSWFRQAPGKGLEWVGVSRSKAYGGTTDYAASVKGRFTISRDDSKSFAYLQMNSLKTEDTAVYYCCSSGYSSGWTPFDYWGQGTLVTVSSASTKGPSVFPLAPSSKSTSGGTAALGCLVKDYFPEPVTVSWNSGALTSGVHTFPAVLQSSGLYSLSSVVTVPSSSLGTQTYICNVNHKPSNTKVDKKV[omitted - human IgG1 Fc] light: QSVLTQPPSASGTPGQRVTISCSGSSSNIGSNTVNWYQQLPGTAPKLLIFNYHQRPSGVPDRFSGSKSGSSASLAISGLQSEDEADYYCAAWDDSLNGWVFGGGTELTVLGQPKAAPSVTLFPPSSEELQANKATLVCLISDFYPGAVTVAWKADSSPVKAGVETTTPSKQSNNKYAASSYLSLTPEQWKSHRSYSCQVTHEGSTVEKTVAPTECS	bound full-length and truncated forms of BCMA	–	–	–
2A1CV5-MCC-DM1 (conjugate) heavy: EVQLVESGGGLVKPGGSLRLSCAASGFTFGDYALSWFRQAPGKGLEWVGVSRSKAYGGTTDYAASVKGRFTISRDDSKSTAYLQMNSLKTEDTAVYYCASSGYSSGWTPFDYWGQGTLVTVSSASTKGPSVFPLAPSSKSTSGGTAALGCLVKDYFPEPVTVSWNSGALTSGVHTFPAVLQSSGLYSLSSVVTVPSSSLGTQTYICNVNHKPSNTKVDKKV[omitted - human IgG1 Fc] light: QSVLTQPPSASGTPGQRVTISCSGSSSNIGSNTVNWYQQLPGTAPKLLIFNYHQRPSGVPDRFSGSKSGSSASLAISGLQSEDEADYYCAAWDDSLNGWVFGGGTKLTVLGQPKAAPSVTLFPPSSEELQANKATLVCLISDFYPGAVTVAWKADSSPVKAGVETTTPSKQSNNKYAASSYLSLTPEQWKSHRSYSCQVTHEGSTVEKTVAPTECS	–	Yes	Yes	Yes
